# According to patent EP0973766B1, “QUINOXALINEDIONES” (Pfizer Limited, priority 1997, dated 1998):
# Where two headings read alike, the source gives them in different places.
# Tests used:
# [1] = target: T1, glycine site of the NMDA receptor (Rattus norvegicus, UniProt P35439); experiment: biochemical
# [2] = target: T2, NMDA (glycine site) receptor (Rattus norvegicus, UniProt P35439); experiment: cell-based
# [3] = target: T1, glycine site of the NMDA receptor; settings: read-out: Binding affinity IC50; pH 7.4
# [4] = target: T2, NMDA (glycine site) receptor; settings: read-out: Functional in vitro glycine antagonism IC50
molecule,measurement,setting,value
"COCc1nnc(-c2ccc[n+]([O-])c2)n1-c1c(Cl)c(Cl)cc2[nH]c(=O)c(=O)[nH]c12 [Example 2, (-)-6,7-Dichloro-5-[3-methoxymethyl-5-(1-oxidopyridin-3-yl)-4H-1,2,4-triazol-4-yl]-2,3(1H,4H)-quinoxalinedione hydrate]",IC50,[1],2.4 nM
same,IC50,[2],140 nM
"(-)-6,7-Dichloro-5-[3-methoxymethyl-5-(1-oxidopyridin-3-yl)-4H-1,2,4-triazol-4-yl]-2,3(1H,4H)-quinoxalinedione, silica complex [Reference Example 1]",IC50,[3],3.8 nM
same,IC50,[4],190 nM
